The text below walks through data of US8710089B2, “Triazole derivatives as ghrelin analogue ligands of growth hormone secretagogue receptors” (Zentaris GmbH, priority 2005, dated 2014).

By UniProt entry, the sequences of proteins in these tests, tags left out.
UniProt Q92847, whole entry: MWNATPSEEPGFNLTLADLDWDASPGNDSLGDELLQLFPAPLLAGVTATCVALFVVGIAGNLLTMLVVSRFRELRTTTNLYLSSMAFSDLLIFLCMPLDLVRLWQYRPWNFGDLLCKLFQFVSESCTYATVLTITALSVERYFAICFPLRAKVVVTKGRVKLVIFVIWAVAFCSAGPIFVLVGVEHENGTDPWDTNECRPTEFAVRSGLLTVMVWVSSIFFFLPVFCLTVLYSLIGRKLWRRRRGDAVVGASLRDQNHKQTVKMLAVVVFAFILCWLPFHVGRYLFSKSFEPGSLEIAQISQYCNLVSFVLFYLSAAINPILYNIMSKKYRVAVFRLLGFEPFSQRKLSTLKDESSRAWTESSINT

pIC50: −log10 of the molar value.

As a reminder, the pIC50 is −log10 of the IC50, conventionally taken in molar units.

The target in this assay is T1, human GHS-R 1a (Homo sapiens, UniProt Q92847).
T1 construct: expressed in transfected cells; host or cells: LLC PK-1 porcine renal epithelial cells (ECACC No. 86121112), isolated plasma membranes
The experiment in a line: GHS-R 1a receptor-ligand binding assay (membrane preparations from transfected LLC PK-1 cells). To be noted: displacement of 125I-His9-ghrelin (60 pM); membranes of LLC PK-1 cells transfected with human GHS-R 1a; mean of at least two independent experiments in triplicates. The method, then:
(J. Med. […] Med. Chem. 2003, 46: 1191-1203), were incubated in homogenization buffer HB [50 mM Tris (pH 7.3), 5 mM MgCl2, 2.5 mM EDTA, and 30 μg/mL bacitracin (Sigma)] for 60 min at 25° C. (steady-state conditions) with 60 pM ^125I-[…]-ghrelin (Amersham) in the presence or absence of competing compounds (compounds of the invention). […] Nonspecific binding was defined using an excess (10^-6 M) of ghrelin. The binding reaction was stopped by addition of 4 mL of ice-cold HB followed by rapid filtration over Whatman GP/C filters presoaked with 0.5% polyethyleneimine to prevent excessive binding of radioligand to the filters. […] In the following table 2 results obtained for selected compounds of the invention are presented in comparison to an example of the prior art. IC50 values given are the mean of at least two independent experiments performed in triplicates.
For orientation: In a radioligand displacement assay an active substance lowers the binding of a labelled ligand.
For `COc1ccc(Cn2c(CCc3ccccc3)nnc2[C@@H](Cc2c[nH]c3ccccc23)NC(=O)[C@@H]2CCCCN2)cc1` [compound 48, (S)—N—((R)-1-(4-(4-methoxybenzyl)-5-phenethyl-4H-1,2,4-triazol-3-yl)-2-(1H-indol-3-yl)ethyl)piperidine-2-carboxamide], the pIC50 is 7.96.
In turn, `COc1ccc(Cn2c(CCc3ccccc3)nnc2[C@@H](Cc2c[nH]c3ccccc23)NC(=O)[C@H]2CCCCN2)cc1` [compound 49, (R)—N—((R)-1-(4-(4-methoxybenzyl)-5-phenethyl-4H-1,2,4-triazol-3-yl)-2-(1H-indol-3-yl)ethyl)piperidine-2-carboxamide] gave a pIC50 of 7.64.
In the case of `COc1ccc(Cn2c(CCc3ccccc3)nnc2[C@@H](Cc2c[nH]c3ccccc23)NC(=O)CN)cc1` [compound 50, (R)—N-(1-(4-(4-methoxybenzyl)-5-phenethyl-4H-1,2,4-triazol-3-yl)-2-(1H-indol-3-yl)ethyl)-2-aminoacetamide] it was 7.25.
